System: Mus musculus
Assay: Antinociceptive activity in male B6-SJL mouse administered subcutaneously daily measured on day 1 by warm water tail-flick assay
Format: functional
Settings: sc, 24 h, time 1 day

CN1CC[C@]23c4c5ccc(O)c4O[C@H]2[C@@H](O)C=C[C@H]3[C@H]1C5 [MORPHINE]
ED50: 5.3 mg/kg

From ChEMBL document CHEMBL4715803, “Synthetic Studies of Neoclerodane Diterpenes from Salvia divinorum: Identification of a Potent and Centrally Acting μ Opioid Analgesic with Reduced Abuse Liability” (J Med Chem, 2016)
